In assay [1] the target is T1, Progesterone receptor (Homo sapiens, UniProt P06401).
T1 sequence (P06401 whole entry): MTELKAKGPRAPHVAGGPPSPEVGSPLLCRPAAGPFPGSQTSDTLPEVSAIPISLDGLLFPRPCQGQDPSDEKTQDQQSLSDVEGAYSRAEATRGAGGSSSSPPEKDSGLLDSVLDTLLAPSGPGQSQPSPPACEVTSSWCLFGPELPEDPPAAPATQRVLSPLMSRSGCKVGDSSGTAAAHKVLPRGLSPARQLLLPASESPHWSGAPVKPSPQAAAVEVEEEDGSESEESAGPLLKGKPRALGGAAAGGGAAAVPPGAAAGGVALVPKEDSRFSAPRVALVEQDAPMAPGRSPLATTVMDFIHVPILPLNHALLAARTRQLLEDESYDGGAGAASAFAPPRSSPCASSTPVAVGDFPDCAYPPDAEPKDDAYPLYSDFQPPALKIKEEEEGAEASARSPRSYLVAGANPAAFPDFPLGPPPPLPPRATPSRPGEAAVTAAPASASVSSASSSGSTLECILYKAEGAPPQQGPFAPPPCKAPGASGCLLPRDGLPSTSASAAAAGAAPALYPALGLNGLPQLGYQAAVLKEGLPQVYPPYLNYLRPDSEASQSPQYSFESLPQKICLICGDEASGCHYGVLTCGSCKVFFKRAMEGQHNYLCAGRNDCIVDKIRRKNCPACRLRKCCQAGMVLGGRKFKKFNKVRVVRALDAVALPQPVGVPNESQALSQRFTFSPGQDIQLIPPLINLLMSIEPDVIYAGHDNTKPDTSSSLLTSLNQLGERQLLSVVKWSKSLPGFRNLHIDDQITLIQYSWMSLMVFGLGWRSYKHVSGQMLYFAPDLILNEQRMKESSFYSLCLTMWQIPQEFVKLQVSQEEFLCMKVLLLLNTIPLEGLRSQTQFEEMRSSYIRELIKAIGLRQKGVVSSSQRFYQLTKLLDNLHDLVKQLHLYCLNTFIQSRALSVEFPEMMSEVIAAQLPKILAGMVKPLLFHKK

For assay [2], the target named is T1, Progesterone receptor. The source holds these as a separate data set.

Our source for the Ki and IC50 values is ChEMBL document CHEMBL1129561 (J Med Chem, 1996).

For `C=C1C=C(C)CC(C)(C)C1(O)Cc1ccc([N+](=O)[O-])cc1` (stereo not given), the Ki at Progesterone receptor [1] was 243 nM.

Compound `C=C1C=C(C)C(Cc2cc(OC)c(Br)cc2O)C(C)(C)C1` (stereo not given) returned a Ki on Progesterone receptor [1] of 109 nM. The compound `C=C1C=C(C)CC(C)(C)C1Cc1cc(OC)c(Br)cc1O` (stereo not given) came in with an IC50 at Progesterone receptor [2] of 3570 nM. For the same compound, on Progesterone receptor [1], the Ki stood at 31 nM. For `C=C1C=C(C)CC(C)(C)C1Sc1ccc([N+](=O)[O-])cc1` (stereo not given), at Progesterone receptor [1], the Ki was found to be 119 nM.

Broadly, the Ki is the equilibrium dissociation constant of an inhibitor or competing ligand from its target. Broadly, the IC50 is the concentration that inhibits the measured activity by half. The low end stands for inhibition by little substance, the high end for a need for much substance.
